Reference: patent publication US20090226393A1, “POLYMER PACLITAXEL CONJUGATES AND METHODS FOR TREATING CANCER” (NITTO DENKO CORPORATION, priority 2008, published 2009)
Where two headings read alike, the source gives them in different places.

Key:
[1] = Plasma pharmacokinetics after single IV bolus in mice bearing NCI-H460 xenografts
[2] = not given; remark: listed apart in the source
[3] = not given; remark: listed apart in the source
[4] = Biodistribution in different organs (drug accumulation study); details: 48 hours post administration
[5] = 40 mg PTX equivalents/kg IV bolus
[6] = total PTX, 40 mg/kg PTX IV bolus
[7] = tumor, total PTX, 40 mg/kg PTX IV bolus

poly-(gamma-L-glutamyl glutamine)-paclitaxel [PGGA70K-PTX35]
PGGA-[^3H]PTX/[^3H]PTX Ratio of AUClast [1]: 24 | PGGA-[^3H]PTX/[^3H]PTX Ratio of CL [1]: 0.04 | PGGA-[^3H]PTX/[^3H]PTX Ratio of Cmax [1]: 8.5 | PGGA-[^3H]PTX/[^3H]PTX Ratio of T1/2 Terminal [1]: 5 | PGGA-[^3H]PTX/[^3H]PTX Ratio of Vd [1]: 0.2 | mean terminal half-life [1]: 296 h | AUClast [1, 5]: 3,454 μg-h/ml | Cmax [1, 5]: 517 µg/mL | increase of AUClast versus PTX ([1]; at equivalent PTX doses): 23.6 fold | increase of Cmax versus PTX ([1]; at equivalent PTX doses): 8.5 fold | AUClast [1, 6]: 3454375 ng·h/mL | CL [1, 6]: 0.192 mL/min/kg | Cmax [1, 6]: 517.084 µg/mL | T1/2 Terminal [1, 6]: 296 h | solubility in saline: 50 mg/mL | PGGA-[^3H]PTX/[^3H]PTX Ratio of AUClast ([2]; tumor): 8 | PGGA-[^3H]PTX/[^3H]PTX Ratio of CL ([2]; tumor): 0.12 | PGGA-[^3H]PTX/[^3H]PTX Ratio of Cmax ([2]; tumor): 2 | PGGA-[^3H]PTX/[^3H]PTX Ratio of T1/2 Terminal ([2]; tumor): 2 | PGGA-[^3H]PTX/[^3H]PTX Ratio of Tmax ([2]; tumor): 2 | AUClast ([2]; tumor tissue): 2,496 μg-h/ml | Cmax ([2]; tumor tissue): 17 µg/mL | terminal half-life ([2]; tumor tissue): 107 h | increase of AUClast in the tumor versus PTX (amount of PTX delivered to the tumor) ([2]; tumor, at equivalent PTX doses): 7.7 fold | increase of Cmax in the tumor versus PTX ([2]; tumor, at equivalent PTX doses): 2.1 fold | AUClast [2, 7]: 2496055 ng·h/mL | CL [2, 7]: 0.2442 mL/min/kg | Cmax [2, 7]: 17.538 µg/mL | T1/2 Terminal [2, 7]: 107 h | Tmax [2, 7]: 4 h | estimated total urinary excretion ([3]; 48 hour period): 13.9% | detected in the feces ([3]; within the first 48 hour): 36% | amount retained in kidney [4]: ~60 µg/g | amount retained in liver [4]: about 230 μg/g | amount retained in lung [4]: ~40 µg/g | amount retained in spleen [4]: ~160 µg/g
